Patent US9273055B2 (dated 2016)

Amino acid sequences for entries named in this document (tags omitted). Residues count along the entry.
UniProt P04629, 33-796: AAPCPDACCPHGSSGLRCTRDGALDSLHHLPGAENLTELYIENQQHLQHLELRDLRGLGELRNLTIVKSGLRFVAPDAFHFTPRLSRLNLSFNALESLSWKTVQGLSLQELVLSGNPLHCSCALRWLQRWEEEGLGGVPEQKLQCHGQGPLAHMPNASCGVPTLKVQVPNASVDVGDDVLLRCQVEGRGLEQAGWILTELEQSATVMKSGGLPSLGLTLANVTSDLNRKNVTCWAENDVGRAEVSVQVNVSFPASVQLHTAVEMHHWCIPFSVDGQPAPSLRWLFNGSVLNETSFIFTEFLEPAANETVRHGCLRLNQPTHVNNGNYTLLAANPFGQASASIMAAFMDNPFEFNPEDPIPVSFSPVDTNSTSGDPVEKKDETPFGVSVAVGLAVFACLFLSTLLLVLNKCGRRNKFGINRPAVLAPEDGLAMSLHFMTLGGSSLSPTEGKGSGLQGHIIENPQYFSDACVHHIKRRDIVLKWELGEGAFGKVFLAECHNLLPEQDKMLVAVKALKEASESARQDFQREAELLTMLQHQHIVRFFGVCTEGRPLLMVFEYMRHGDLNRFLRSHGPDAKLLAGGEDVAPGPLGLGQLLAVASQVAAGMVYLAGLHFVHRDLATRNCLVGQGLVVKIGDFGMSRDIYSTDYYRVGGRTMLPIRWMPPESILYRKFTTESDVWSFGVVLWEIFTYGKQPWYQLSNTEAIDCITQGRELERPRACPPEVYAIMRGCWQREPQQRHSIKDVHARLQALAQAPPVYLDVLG
UniProt Q9UM73, 19-1620: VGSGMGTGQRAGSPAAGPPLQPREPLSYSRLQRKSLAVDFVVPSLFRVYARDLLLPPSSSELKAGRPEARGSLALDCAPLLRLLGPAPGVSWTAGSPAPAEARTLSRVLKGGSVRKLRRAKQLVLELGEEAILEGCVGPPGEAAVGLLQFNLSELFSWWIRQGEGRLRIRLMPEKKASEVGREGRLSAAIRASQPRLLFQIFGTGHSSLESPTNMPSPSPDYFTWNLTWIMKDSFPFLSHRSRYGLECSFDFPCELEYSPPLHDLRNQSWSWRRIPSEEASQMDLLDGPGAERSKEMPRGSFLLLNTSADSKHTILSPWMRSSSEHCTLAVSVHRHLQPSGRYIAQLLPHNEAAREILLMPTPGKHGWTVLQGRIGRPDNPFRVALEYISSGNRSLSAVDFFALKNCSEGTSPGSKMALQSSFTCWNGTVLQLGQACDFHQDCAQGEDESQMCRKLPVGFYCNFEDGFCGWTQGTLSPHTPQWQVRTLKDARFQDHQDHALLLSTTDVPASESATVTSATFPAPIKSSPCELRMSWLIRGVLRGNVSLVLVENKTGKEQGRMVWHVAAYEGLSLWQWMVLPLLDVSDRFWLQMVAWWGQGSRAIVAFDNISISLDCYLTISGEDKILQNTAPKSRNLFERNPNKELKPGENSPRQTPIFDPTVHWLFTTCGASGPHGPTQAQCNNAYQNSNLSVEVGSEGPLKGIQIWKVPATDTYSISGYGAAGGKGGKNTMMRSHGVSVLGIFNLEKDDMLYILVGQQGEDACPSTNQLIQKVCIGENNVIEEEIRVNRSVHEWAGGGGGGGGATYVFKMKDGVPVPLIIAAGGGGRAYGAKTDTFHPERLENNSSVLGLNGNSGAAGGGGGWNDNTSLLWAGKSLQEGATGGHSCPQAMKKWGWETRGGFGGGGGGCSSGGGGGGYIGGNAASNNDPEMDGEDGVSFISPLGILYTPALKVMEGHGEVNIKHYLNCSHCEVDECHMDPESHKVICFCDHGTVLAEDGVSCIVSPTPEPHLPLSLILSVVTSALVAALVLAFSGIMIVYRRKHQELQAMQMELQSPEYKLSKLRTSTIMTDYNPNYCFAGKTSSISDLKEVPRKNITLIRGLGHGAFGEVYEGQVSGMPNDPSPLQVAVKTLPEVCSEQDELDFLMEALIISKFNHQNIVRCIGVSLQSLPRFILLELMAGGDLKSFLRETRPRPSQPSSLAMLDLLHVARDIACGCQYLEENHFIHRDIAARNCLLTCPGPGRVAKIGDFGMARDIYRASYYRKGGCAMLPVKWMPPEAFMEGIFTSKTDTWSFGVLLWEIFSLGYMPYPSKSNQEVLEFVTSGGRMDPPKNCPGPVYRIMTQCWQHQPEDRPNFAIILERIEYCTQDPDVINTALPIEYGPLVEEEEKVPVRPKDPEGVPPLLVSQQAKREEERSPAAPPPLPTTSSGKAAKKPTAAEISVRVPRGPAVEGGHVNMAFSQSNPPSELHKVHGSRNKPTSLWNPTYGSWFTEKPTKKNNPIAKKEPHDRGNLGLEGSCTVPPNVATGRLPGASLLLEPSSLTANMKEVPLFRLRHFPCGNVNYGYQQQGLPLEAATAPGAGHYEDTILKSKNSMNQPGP

How the values were obtained:
TrkA = TrkA (Homo sapiens, UniProt P04629); experiment: In vitro kinase activity assay (LANCE TR-FRET), TrkA; assay type: biochemical; conditions: read-out: TrKA IC50
ALK = ALK (Homo sapiens, UniProt Q9UM73); experiment: In vitro kinase activity assay (LANCE TR-FRET), ALK; conditions: read-out: ALK IC50

C[C@@H](Cc1c(F)c(F)cc(F)c1F)Nc1cc[nH]c(=O)c1-c1nc2cc3c(cc2[nH]1)C(=O)N(c1ccc(F)nc1)C3=O [Compound 15, (S)-6-(6-Fluoropyridin-3-yl)-2-(2-oxo-4-((1-(2,3,5,6-tetrafluorophenyl)propan-2-yl)amino)-1,2-dihydropyridin-3-yl)imidazo[4,5-f]isoindole-5,7(1H,6H)-dione]
IC50 (TrkA): > 10 µM
IC50 (ALK): > 10 µM
